Protein sequences, listed by entry. Tags and fused reporters are not part of them. Residues count along the entry.
UniProt P41594, 21-1180 isoform 2 limits assumed: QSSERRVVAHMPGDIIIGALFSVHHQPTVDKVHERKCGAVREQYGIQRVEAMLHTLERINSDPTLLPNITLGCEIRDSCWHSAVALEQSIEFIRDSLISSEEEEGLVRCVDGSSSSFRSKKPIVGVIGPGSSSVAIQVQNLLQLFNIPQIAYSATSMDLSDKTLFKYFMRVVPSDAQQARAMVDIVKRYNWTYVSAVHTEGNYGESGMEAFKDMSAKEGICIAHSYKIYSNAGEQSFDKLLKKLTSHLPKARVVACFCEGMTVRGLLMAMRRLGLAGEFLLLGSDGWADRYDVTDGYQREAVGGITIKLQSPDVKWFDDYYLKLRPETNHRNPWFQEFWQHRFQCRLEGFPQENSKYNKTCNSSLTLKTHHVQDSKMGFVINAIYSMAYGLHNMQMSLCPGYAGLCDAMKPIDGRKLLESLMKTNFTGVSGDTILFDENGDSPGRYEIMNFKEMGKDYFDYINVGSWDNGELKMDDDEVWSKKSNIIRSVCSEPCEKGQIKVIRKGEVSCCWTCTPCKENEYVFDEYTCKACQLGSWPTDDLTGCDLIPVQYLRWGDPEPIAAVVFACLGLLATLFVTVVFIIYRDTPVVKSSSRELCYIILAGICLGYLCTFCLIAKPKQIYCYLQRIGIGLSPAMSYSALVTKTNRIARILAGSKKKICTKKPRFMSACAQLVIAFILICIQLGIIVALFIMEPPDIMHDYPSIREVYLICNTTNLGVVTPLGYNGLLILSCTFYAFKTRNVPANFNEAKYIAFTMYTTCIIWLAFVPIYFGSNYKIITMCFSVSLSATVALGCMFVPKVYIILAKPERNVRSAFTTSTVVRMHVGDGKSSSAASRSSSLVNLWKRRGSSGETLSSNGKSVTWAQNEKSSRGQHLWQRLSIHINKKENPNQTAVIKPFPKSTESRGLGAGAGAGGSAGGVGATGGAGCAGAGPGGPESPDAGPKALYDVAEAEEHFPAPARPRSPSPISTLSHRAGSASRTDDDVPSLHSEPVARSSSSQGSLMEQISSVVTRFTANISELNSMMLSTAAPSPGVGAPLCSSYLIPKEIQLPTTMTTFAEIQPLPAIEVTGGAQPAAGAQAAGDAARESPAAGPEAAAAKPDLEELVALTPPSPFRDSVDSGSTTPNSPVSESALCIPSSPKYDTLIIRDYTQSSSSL

According to patent US20130345204A1, “SUBSTITUTED BICYCLIC CYCLOALKYL PYRAZOLE LACTAM ANALOGS AS ALLOSTERIC MODULATORS OF MGLUR5 RECEPTORS” (Vanderbilt University, priority 2012, published 2013):

biological target: human mGluR5 (Homo sapiens, UniProt P41594); assay: Cell-based functional Ca2+ mobilization assay (FDSS), potentiation of glutamate EC20 response; details: H10H cell-line; maximum % effect as percent of response to maximally effective glutamate; glutamate EC20 present

Going from `O=C1c2cc(COc3ccccc3)nn2CCN1C1CCCCCC1` to `C[C@H]1CN(CC2CCC2)C(=O)c2cc(COc3ccccc3)nn21`, the “Emax (%)” value rises from 60% to 75%.

First: CC1CN(CC2(C)COC2)C(=O)c2cc(COc3ccccc3)nn21 (single isomer, unassigned)
Second: C[C@H]1CN(CC2CC2(F)F)C(=O)c2cc(COc3ccccc3)nn21 (some centres unmarked)
The “Emax (%)” value of the first is higher: 76% for the first, 64% for the second.

same assay, conditions: H10H cell-line; potentiation in presence of glutamate EC20

`O=C1c2cc(COc3ccccc3)nn2CCN1C1CCCCCC1` and `C[C@H]1CN(CC2CCC2)C(=O)c2cc(COc3ccccc3)nn21` are within 0.2 log units of each other in pEC50: 7.17 for the first, 7.02 for the second.

Going from `CC1CN(CC2(C)COC2)C(=O)c2cc(COc3ccccc3)nn21` (single isomer, unassigned) to `C[C@H]1CN(CC2CC2(F)F)C(=O)c2cc(COc3ccccc3)nn21` (some centres unmarked), the pEC50 rises from 5.46 to 6.54.
